Data as given in publication PMC3070799 (Neuropharmacology, 2011).

Amino acid sequences for entries named in this document (tags omitted). Residues count along the entry.
UniProt P46098, 24-478: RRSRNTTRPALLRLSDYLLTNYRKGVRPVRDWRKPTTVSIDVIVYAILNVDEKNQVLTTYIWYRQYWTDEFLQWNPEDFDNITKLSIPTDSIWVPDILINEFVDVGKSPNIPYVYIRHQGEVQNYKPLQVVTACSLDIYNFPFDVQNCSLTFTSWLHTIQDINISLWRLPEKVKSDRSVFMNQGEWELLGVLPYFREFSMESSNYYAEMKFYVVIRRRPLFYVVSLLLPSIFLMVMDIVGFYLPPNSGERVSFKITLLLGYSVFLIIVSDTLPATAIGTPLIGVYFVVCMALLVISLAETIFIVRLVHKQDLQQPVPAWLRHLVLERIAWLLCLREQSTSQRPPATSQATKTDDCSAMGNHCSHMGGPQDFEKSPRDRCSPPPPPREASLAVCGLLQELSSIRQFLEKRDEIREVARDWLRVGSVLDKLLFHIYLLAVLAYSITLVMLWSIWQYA
UniProt O95264, 22-441: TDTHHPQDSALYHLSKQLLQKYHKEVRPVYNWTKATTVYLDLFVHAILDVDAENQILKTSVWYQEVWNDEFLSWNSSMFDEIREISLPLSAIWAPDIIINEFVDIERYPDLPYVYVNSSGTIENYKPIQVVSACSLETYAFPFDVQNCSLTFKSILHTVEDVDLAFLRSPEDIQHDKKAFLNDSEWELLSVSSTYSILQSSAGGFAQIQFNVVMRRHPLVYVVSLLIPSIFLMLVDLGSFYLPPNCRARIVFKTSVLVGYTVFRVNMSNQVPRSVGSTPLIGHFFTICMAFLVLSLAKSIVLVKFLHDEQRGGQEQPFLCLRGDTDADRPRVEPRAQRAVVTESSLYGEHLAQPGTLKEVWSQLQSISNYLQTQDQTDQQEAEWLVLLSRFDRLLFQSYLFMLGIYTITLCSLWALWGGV

Key:
human 5-HT3A receptors = target: T1, human 5-HT3A receptors (Homo sapiens, UniProt P46098); assay: Two-electrode voltage clamp of 5-HT-induced currents in Xenopus oocytes, incl. co-application; type: cell-based; conditions: inhibition of 5-HT EC50 response (1.7 μM 5-HT)
T1 construct: expressed in transfected cells; host or cells: Xenopus laevis oocytes (cRNA from pGEMHE)
Description: (§1) Stage V and VI oocytes were injected with 50 nl of ∼300 ng μl^−1 cRNA, and currents were recorded 1–4 days post-injection. A ratio of 1:3 (A:B) was used for the expression of heteromeric 5-HT3 receptors.
(§2) Xenopus laevis oocyte positive females were purchased from NASCO (Fort Atkinson, Wisconsin, USA) and maintained according to standard methods.
Currents were filtered at a frequency of 1 kHz. Micro-electrodes were fabricated from borosilicate glass (GC120TF-10, Harvard Apparatus, Edenbridge, Kent, UK) using a two stage horizontal pull (P-87, Sutter Instrument Company, California, USA) and filled with 3 M KCl. […] Oocytes were perfused with saline at a rate of 15 ml min^−1. Drug application was via a simple gravity fed system calibrated to run at the same rate. Extracellular saline contained (mM), 96 NaCl, 2 KCl, 1 MgCl2 and 5 mM HEPES; adjusted to pH 7.4 with NaOH. […]
97) • Scenario 1: Where compounds share a binding site it was assumed that the extent of binding would be determined by a competitive interaction between the compounds such that the proportion of binding sites occupied (Pocc) in the presence of two competing compounds is given by the following expression: (2) Pocc=AKA+BKB/1+AKA+BKB where A and B are the concentrations of two ligands and KA and KB are their affinity constants respectively. […]

human 5-HT3AB receptors = target: T2, human 5-HT3AB receptors (Homo sapiens, UniProt O95264+P46098); assay: Two-electrode voltage clamp of 5-HT-induced currents in Xenopus oocytes; type: cell-based; conditions: inhibition of 5-HT EC50 response (28 μM 5-HT)
T2 construct: expressed in transfected cells; host or cells: Xenopus laevis oocytes (cRNA from pGEMHE)
Description: as §1, §2
Currents were filtered at a frequency of 1 kHz. Micro-electrodes were fabricated from borosilicate glass (GC120TF-10, Harvard Apparatus, Edenbridge, Kent, UK) using a two stage horizontal pull (P-87, Sutter Instrument Company, California, USA) and filled with 3 M KCl. […] Oocytes were perfused with saline at a rate of 15 ml min^−1. Drug application was via a simple gravity fed system calibrated to run at the same rate. Extracellular saline contained (mM), 96 NaCl, 2 KCl, 1 MgCl2 and 5 mM HEPES; adjusted to pH 7.4 with NaOH.
Analysis and curve fitting was performed using Prism V3.02 (GraphPad Software, San Diego, California, USA, www.graphpad.com). Concentration-response data for each oocyte was normalised to the maximum current for that oocyte. For inhibition curves, antagonists were routinely co-applied in the presence of agonist. For PXN, oocytes were also pre-treated with the compound for 20 s. A 2 min wash was used between drug applications. […]

## ginkgolide B [GB]
Human 5-HT3A receptors
  IC50: 730 µM
Human 5-HT3AB receptors
  IC50: 3900 µM
